Laboratory results taken from patent US20140286963A1.

Sequences of proteins named here, by UniProt entry; tags and fusion partners are left off. A change or cut given only in a name is not applied to a line headed by its entry. Residues count along the entry.
UniProt P56817, 22-457: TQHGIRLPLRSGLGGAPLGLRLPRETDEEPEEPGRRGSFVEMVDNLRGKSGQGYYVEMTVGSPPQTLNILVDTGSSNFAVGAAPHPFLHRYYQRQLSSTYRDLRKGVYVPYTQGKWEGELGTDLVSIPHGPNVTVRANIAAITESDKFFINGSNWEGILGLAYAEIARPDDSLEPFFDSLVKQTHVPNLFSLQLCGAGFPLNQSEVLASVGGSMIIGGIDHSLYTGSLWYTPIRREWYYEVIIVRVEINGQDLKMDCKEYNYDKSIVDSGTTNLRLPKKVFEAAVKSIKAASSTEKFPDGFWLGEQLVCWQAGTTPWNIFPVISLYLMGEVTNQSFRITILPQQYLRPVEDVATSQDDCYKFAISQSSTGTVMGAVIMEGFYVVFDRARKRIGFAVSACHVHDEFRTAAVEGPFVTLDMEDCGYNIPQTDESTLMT

Biological target: human BACE1 extracellular domain, amino acids 1-457 of SEQ ID NO:49 (human) (UniProt P56817)
Assay: cell-based or functional assay

OM99-2 (CalBiochem, catalog #496000) (peptide)
IC50, HTRF enzyme activity assay: 0.011 µM
